From article PMC5748972 (The Journal of Cell Biology, 2018)

Protein sequences, listed by entry. Tags and fused reporters are not part of them. Residues count along the entry.
UniProt P08648, 42-1049, chain 1 of 2: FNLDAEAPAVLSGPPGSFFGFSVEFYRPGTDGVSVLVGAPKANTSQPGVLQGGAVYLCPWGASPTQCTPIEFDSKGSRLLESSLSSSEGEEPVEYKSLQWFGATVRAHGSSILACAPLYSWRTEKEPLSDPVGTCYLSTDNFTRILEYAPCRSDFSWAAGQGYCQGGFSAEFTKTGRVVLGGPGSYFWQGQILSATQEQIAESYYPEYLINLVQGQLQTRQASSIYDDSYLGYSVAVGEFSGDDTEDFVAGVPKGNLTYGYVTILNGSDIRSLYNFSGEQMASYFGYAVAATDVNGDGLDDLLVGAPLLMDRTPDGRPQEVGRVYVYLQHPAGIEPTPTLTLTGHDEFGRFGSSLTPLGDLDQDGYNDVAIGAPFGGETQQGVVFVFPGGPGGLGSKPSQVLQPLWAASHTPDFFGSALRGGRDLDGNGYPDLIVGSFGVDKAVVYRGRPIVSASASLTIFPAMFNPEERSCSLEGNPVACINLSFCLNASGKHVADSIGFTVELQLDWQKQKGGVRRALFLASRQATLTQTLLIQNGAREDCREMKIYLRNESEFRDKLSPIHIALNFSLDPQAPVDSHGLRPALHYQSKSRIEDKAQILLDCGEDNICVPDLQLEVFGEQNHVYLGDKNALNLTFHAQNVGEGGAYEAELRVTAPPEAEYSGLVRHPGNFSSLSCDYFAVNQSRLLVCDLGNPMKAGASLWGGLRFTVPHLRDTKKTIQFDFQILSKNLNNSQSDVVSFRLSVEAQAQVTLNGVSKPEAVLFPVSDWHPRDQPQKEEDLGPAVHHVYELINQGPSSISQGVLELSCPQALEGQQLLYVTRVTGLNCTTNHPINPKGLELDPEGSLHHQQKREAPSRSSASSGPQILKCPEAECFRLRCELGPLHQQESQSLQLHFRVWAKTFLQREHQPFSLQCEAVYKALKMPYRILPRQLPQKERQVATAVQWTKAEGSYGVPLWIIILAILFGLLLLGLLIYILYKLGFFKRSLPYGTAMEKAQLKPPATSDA

Biological target: intact integrin α5β1 on the surface of KA4 cells (human (endogenous in K562)) (UniProt P08648)
Assay: flow cytometry on cells

Substance: fibronectin Fn3 domains 9 and 10 (domain or fragment)
- Kd: 1.2 µM
